Tested on: Escherichia coli
Test: Binding affinity to […] Escherichia coli FimH-lectine domain assessed as melting temperature at 100 uM by differential scanning fluorometric assay
In short: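 Untagged FimH lectin domain (residues 1–158 of UPEC J96 FimH), 5 µg in a 50 µl reaction of HBS (20mM HEPES pH 7.5, 150mM NaCl). Compound at 100µM final, diluted from DMSO stocks, with SYPRO Orange at 5X final. Controls were FimH alone plus 0.2% DMSO. Melt curve ran from 20–90°C in 0.5 °C steps of 15 s each, with fluorescence read on the HEX channel.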

| Structure (SMILES) | Tm [°C] |
| --- | --- |
| OC[C@H]1O[C@H](OCc2ccccc2)[C@@H](O)[C@@H](O)[C@@H]1O | 68.1 |
| COC(=O)c1ccc(-c2ccc(O[C@H]3O[C@H](CO)[C@@H](O)[C@H](O)[C@@H]3O)cc2)cc1 | 68.7 |
